Test results reported in US4000147A, “Anhydro-2-mercapto-1,3,4-thiadiazolium hydroxides” (BASF Aktiengesellschaft, priority 1974, dated 1976).

Tests used:
[1] = in vivo; details: mouse
Procedure: The comparative experiments in Table 3 were carried out with anhydro-2-mercapto-4-methyl-5-(3'-chlorophenyl)-1,3,4-thiadiazolium hydroxide, referred to as substance A in the Table and in the subsequent text.

[2] = test system: maximum electric shock; assay: maximum tonic electro-induced cramp (Table 3); type: in vivo, mice; details: in words
[3] = test system: maximum Pentetrazol-induced extension; assay: maximum tonic extension spasm after subcutaneous administration of 121 mg/kg of Pentetrazol (Table 3); type: in vivo, mice; details: in words

O=C1NC(=O)C(c2ccccc2)(c2ccccc2)N1 [Phenytoin]
LD50 [1]: 360 mg/kg
activity in cramp induced by electric shock, relative to substance A [2]: about twice as active
activity in tonic cramp induced by Pentetrazol, relative to substance A [3]: about twice as active
